According to US9364496B2, “Custirsen treatment with reduced toxicity” (ONCOGENEX TECHNOLOGIES INC., priority 2013, dated 2016):
Values joined by “and” are separate entries in the source; they are usually repeats but may differ in a detail not shown here. Equal values may be shown once. Oligonucleotides are written 5' to 3', each unit as a sugar letter and its base; * is a phosphorothioate linkage, no mark a phosphodiester; rarer units and linkages stand in square brackets, end groups in braces. Plain capitals give the bases only. e = 2'-O-(2-methoxyethyl) (MOE); [5mC] = 5-methylcytosine; d = 2'-deoxy (DNA)

Columns and labels:
[1] = tested on: RPMI 8226 (human myeloma) xenograft; test: In vivo activity of custirsen with Velcade, RPMI 8226 xenograft (Example 14)
Protocol: The cells were implanted subcutaneously into female SCID mice with 7×10^6 cells inoculum.
Tumors and body weights were measured weekly until termination of the study on day 71. Response to treatment was evaluated for tumor growth inhibition (TGI) and tumor growth delay (TGD).
70 CB.17 SCID female mice, 4-6 weeks old, 16-20 grams, obtained from Harlan animal breeding center.
Sample from the cell suspension was taken for counting (0.3 ml in duplicates for CEDEX) before spun down. Cell viability was 85.6% and live cell concentration was 167×10^5 cells/ml. The pellet was resuspended in HBSS to a final volume of 8 ml.
Tumors were implanted subcutaneously with RPMI-8226 cells into the right flank of the mouse on Day 0. Each animal received a s.c. injection 7×10^6 cells in 0.1 ml suspension. On day 20, mice were sorted by the optimal tumor volume ([…]) and were allocated into 5 groups of 10 mice. Mice were individually tagged and their tumor volume and body weight were monitored weekly during the study. Tumor size was measured by caliper and calculated using the formula: […]
The treatment started on […] (0.2 ml per 20 grams v/w) and continued till day 52, after which the remaining mice were left for observation until day 71.

[2] = tested on: RPMI 8226 (human myeloma) xenograft; test: In vivo activity of custirsen (TV-1011), different doses and regimens with Bortezomib, RPMI 8226 xenograft (Example 15); settings: group 8: TV-1011 30 mg/kg qd*5, 40 mg/kg biwk, individual animals
Protocol: 120 CB.17 SCID female mice, 4-6 weeks old, 16-20 grams, obtained from Harlan animal breeding center.
Cells (originated from ATCC) were cultured on RPMI medium. Cell suspension was centrifuged and resuspended in 50% Matrigel/HBSS to a final concentration of 7×10^7 cells/ml. The suspension was implanted s.c. in the right flank of the anesthetized mouse at a volume of 100 μl.
Seven ml saline were added to the original vial containing 3.5 mg powder resulting in 0.5 mg/ml. Three ml of this solution were added to 27 ml saline to receive 0.05 mg/ml concentration. […] 28.5 ml of 4 mg/ml were added to 9.5 saline to receive 3 mg/ml.
Mice were implanted subcutaneously, with 7×10^6 RPMI 8226 cells/mouse (in 50% Martigel/HBSS) on Day 0. On day 21, mice were sorted by the optimal average tumor volume (˜130 mm3) and were allocated into eight groups of 10 mice each.
The treatment started on day 21 post implant, 0.2 ml per 20 grams v/w.
[formula] The analysis of weight gain and tumor volume progression was made using one-way ANOVA followed by Tukey post-hoc comparisons.

[3] = OGX 40 ip qd*5, twk, individual mouse, listed as OGX

Compound	Δ volume ([1]; Velcade 0.5 mg/kg iv biwk, earlier day (day not given), individual mouse, tumor)	Day 20 volume ([1]; Velcade 0.5 mg/kg iv biwk, individual mouse)	Day 34 Δ volume ([1]; Velcade 0.5 mg/kg iv biwk, individual mouse, vs Day 20)	% of baseline (weight) ([2]; Day 28) [%]	Δ % (weight) ([2]; Day 41 vs Day 21) [%]	% of baseline (weight) ([1]; OGX 40 ip qd*5, twk, Day 48, group mean) [%]	% of baseline (weight) ([1]; OGX 40 ip qd*5, twk, Day 48, individual mice, listed as OGX) [%]	% of baseline (weight) ([1]; OGX 40 ip qd*5, twk, Day 51, group mean) [%]	% of baseline (weight) ([1]; OGX 40 ip qd*5, twk, Day 51, individual mice, listed as OGX)	% of baseline (weight) ([1]; OGX 40 ip qd*5, twk, Day 63, individual mice, listed as OGX) [%]	% of baseline ([1]; OGX 40 ip qd*5, twk, earlier day (day not given), individual mouse, weight, listed as OGX)	Day 45 % of baseline (weight) ([1]; OGX 40 ip qd*5, twk, group Mean, n 9) [%]	Day 27 % of baseline (weight) [1, 3]	Day 41 % of baseline (weight) [1, 3]	Day 45 % of baseline (weight) [1, 3]
CC(C)C[C@H](NC(=O)[C@H](Cc1ccccc1)NC(=O)c1cnccn1)B(O)O [Velcade®, Bortezomib, reference compound]	575.7	123	123.0	–	–	–	–	–	–	–	–	–	–	–	–
Custirsen: anti-clusterin antisense oligonucleotide CAGCAGCAGAGTCTTCATCAT, phosphorothioate backbone, 2′-O-methoxyethyl at nucleotides 1-4 and 18-21, 5-methylcytosines at 1, 4, 19 (antisense e[5mC]*eA*eG*e[5mC]*dA*dG*dC*dA*dG*dA*dG*dT*dC*dT*dT*dC*dA*eT*e[5mC]*eA*eT; listed as Homo sapiens)	–	–	–	104.4	12.3	105.3	104.2	105.3	105.4% and 104.2% and 105.1%	104.7	105.5% and 104.8% and 106.0%	105.6	104.8% and 101.1% and 100.8%	105.9% and 106.0%	105.6% and 101.3% and 106.1%
